Data taken from patent publication US9217022B2, “GLP-1 receptor agonist compounds having stabilized regions” (AstraZeneca Pharmaceuticals LP, priority 2010, dated 2015).

Sequences of proteins named here, by UniProt entry; tags and fusion partners are left off. Residues count along the entry.
UniProt P43220, 24-463, species assumed: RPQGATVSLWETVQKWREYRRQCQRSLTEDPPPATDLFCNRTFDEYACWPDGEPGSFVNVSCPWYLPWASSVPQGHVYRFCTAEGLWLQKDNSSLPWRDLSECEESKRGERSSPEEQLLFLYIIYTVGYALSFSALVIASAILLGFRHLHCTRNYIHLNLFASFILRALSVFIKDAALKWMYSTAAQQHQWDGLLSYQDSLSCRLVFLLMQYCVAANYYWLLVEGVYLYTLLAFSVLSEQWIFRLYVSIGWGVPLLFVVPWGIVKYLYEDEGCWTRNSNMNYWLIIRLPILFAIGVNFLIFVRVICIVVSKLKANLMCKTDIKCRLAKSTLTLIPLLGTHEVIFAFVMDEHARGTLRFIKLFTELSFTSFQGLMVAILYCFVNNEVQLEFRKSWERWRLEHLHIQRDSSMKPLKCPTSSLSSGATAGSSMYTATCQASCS

The molecules below were run against GLP-1 receptor (Homo sapiens, UniProt P43220) (assay: GLP-1 adenylate cyclase assay (functional assay, HTRF cell-based cAMP)). Conditions: not given.
Procedure: GLP-1 adenylate cyclase assay (Functional Assay). The GLP-1 receptor mediated adenylate cyclase activation can be measured using, for example, an HTRF (Homogeneous Time-Resolved Fluorescence) cell-based cAMP assay kit (CisBio) as known in the art.
In vitro assay of the biological activity of benzamide-containing compounds was conducted with the GLP-1 cyclase assay as described herein.
In vitro assay of the biological activity of constrained alkene compounds was conducted with the GLP-1 cyclase assay as described herein.

Structure (SMILES) | EC50 [nM]
CC[C@H](C)[C@H](NC(=O)[C@H](Cc1ccccc1)NC(=O)[C@H](CC(C)C)NC(=O)[C@H](CCCNC(=N)N)NC(=O)[C@@H](NC(=O)[C@H](C)NC(=O)[C@H](CCC(=O)O)NC(=O)[C@H](CCC(=O)O)NC(=O)[C@H](CCC(=O)O)NC(=O)[C@H](CC(C)C)NC(=O)[C@H](CCC(N)=O)NC(=O)[C@H](CCCCN)NC(=O)[C@H](CO)NC(=O)[C@H](CC(C)C)NC(=O)[C@H](CC(=O)O)NC(=O)[C@H](CO)NC(=O)[C@@H](NC(=O)[C@H](Cc1ccccc1)NC(=O)[C@@H](NC(=O)CNC(=O)[C@@H]1CCCN1C(=O)[C@@H](C)NC(=O)[C@@H](N)Cc1c[nH]cn1)[C@@H](C)O)[C@@H](C)O)C(C)C)C(=O)N[C@H]1CC=CC[C@@H](CC(N)=O)NC(=O)[C@H](CCCCN)NC(=O)[C@H](CC(C)C)NC(=O)[C@H](Cc2ccccc2)NC(=O)C1 [Cmpd 27] | 0.8
CC[C@H](C)[C@H](NC(=O)[C@H](Cc1ccccc1)NC(=O)[C@H](CC(C)C)NC(=O)[C@H](CCCNC(=N)N)NC(=O)[C@@H](NC(=O)[C@H](C)NC(=O)[C@H](CCC(=O)O)NC(=O)[C@H](CCC(=O)O)NC(=O)[C@H](CCC(=O)O)NC(=O)c1ccc(NC(=O)c2ccc(NC(=O)c3ccc(NC(=O)[C@@H](NC(=O)CNC(=O)[C@@H]4CCCN4C(=O)[C@@H](C)NC(=O)[C@@H](N)Cc4c[nH]cn4)[C@@H](C)O)c(OCc4ccccc4)c3)c(OCC(C)C)c2)c(OCC(C)C)c1)C(C)C)C(=O)N[C@@H](CCC(=O)O)C(=O)N[C@@H](Cc1ccccc1)C(=O)N[C@@H](CC(C)C)C(=O)N[C@@H](CCCCN)C(=O)N[C@@H](CC(N)=O)C(N)=O [Cmpd 15] | 277
CC(C)C[C@H](NC(=O)[C@H](CCC(N)=O)NC(=O)[C@H](CCCCN)NC(=O)[C@H](CO)NC(=O)[C@H](CC(C)C)NC(=O)[C@H](CC(=O)O)NC(=O)[C@H](CO)NC(=O)[C@@H](NC(=O)[C@H](Cc1ccccc1)NC(=O)[C@@H](NC(=O)CNC(=O)[C@@H]1CCCN1C(=O)[C@@H](C)NC(=O)[C@@H](N)Cc1c[nH]cn1)[C@@H](C)O)[C@@H](C)O)C(=O)N[C@@H](CCC(=O)O)C(=O)N[C@@H](CCC(=O)O)C(=O)N[C@@H](CCC(=O)O)C(=O)N[C@@H](C)C(=O)Nc1ccc(C(=O)Nc2ccc(C(=O)Nc3ccc(C(N)=O)cc3OCc3ccccc3)cc2OCc2ccccc2)cc1OC(C)C [Cmpd 17] | 236
CC[C@H](C)[C@H](NC(=O)[C@H](Cc1ccccc1)NC(=O)[C@H](CC(C)C)NC(=O)[C@H](CCCNC(=N)N)NC(=O)[C@@H](NC(=O)[C@H](C)NC(=O)[C@H](CCC(=O)O)NC(=O)[C@H](CCC(=O)O)NC(=O)[C@H](CCC(=O)O)NC(=O)c1ccc(NC(=O)c2ccc(NC(=O)[C@H](CC(=O)O)NC(=O)[C@H](CO)NC(=O)[C@@H](NC(=O)[C@H](Cc3ccccc3)NC(=O)[C@@H](NC(=O)CNC(=O)[C@@H]3CCCN3C(=O)[C@@H](C)NC(=O)[C@@H](N)Cc3c[nH]cn3)[C@@H](C)O)[C@@H](C)O)c(OCC(C)C)c2)c(OCC(C)C)c1)C(C)C)C(=O)N[C@@H](CCC(=O)O)C(=O)N[C@@H](Cc1ccccc1)C(=O)N[C@@H](CC(C)C)C(=O)N[C@@H](CCCCN)C(=O)N[C@@H](CC(N)=O)C(N)=O [Cmpd 14] | 5.5
CC(C)C[C@H](NC(=O)c1ccc(NC(=O)c2ccc(NC(=O)[C@H](CC(C)C)NC(=O)[C@H](CCCNC(=N)N)NC(=O)[C@@H](NC(=O)[C@H](C)NC(=O)[C@H](CCC(=O)O)NC(=O)[C@H](CCC(=O)O)NC(=O)[C@H](CCC(=O)O)NC(=O)[C@H](CC(C)C)NC(=O)[C@H](CCC(N)=O)NC(=O)[C@H](CCCCN)NC(=O)[C@H](CO)NC(=O)[C@H](CC(C)C)NC(=O)[C@H](CC(=O)O)NC(=O)[C@H](CO)NC(=O)[C@@H](NC(=O)[C@H](Cc3ccccc3)NC(=O)[C@@H](NC(=O)CNC(=O)[C@@H]3CCCN3C(=O)[C@@H](C)NC(=O)[C@@H](N)Cc3c[nH]cn3)[C@@H](C)O)[C@@H](C)O)C(C)C)c(OCc3ccccc3)c2)c(OCc2ccccc2)c1)C(=O)N[C@@H](CCCCN)C(=O)N[C@@H](CC(N)=O)C(N)=O [Cmpd 13] | 1.7

Same assay, conditions: benzamide-containing compounds, Table 3; read-out: Cyclase GLP-1 EC50 (nm)

Structure (SMILES) | EC50 [nM]
CC(C)C[C@H](NC(=O)[C@H](CCCNC(=N)N)NC(=O)[C@@H](NC(=O)[C@H](C)NC(=O)[C@H](C)NC(=O)[C@H](C)NC(=O)[C@H](CC(=O)O)NC(=O)[C@H](CO)NC(=O)[C@@H](NC(=O)[C@H](Cc1ccccc1)NC(=O)[C@@H](NC(=O)CNC(=O)[C@@H]1CCCN1C(=O)[C@@H](C)NC(=O)[C@@H](N)Cc1c[nH]cn1)[C@@H](C)O)[C@@H](C)O)C(C)C)C(=O)Nc1ccc(C(=O)Nc2ccc(C(N)=O)cc2OCc2ccccc2)cc1OCc1ccccc1 [Cmpd 16] | 136
CC(C)C[C@H](NC(=O)[C@H](CCCNC(=N)N)NC(=O)[C@H](C)NC(=O)[C@H](C)NC(=O)[C@H](C)NC(=O)[C@H](CC(=O)O)NC(=O)[C@H](CO)NC(=O)[C@@H](NC(=O)[C@H](Cc1ccccc1)NC(=O)[C@@H](NC(=O)CNC(=O)[C@@H]1CCCN1C(=O)[C@@H](C)NC(=O)[C@@H](N)Cc1c[nH]cn1)[C@@H](C)O)[C@@H](C)O)C(=O)Nc1ccc(C(=O)Nc2ccc(C(N)=O)cc2OCc2ccccc2)cc1OCc1ccccc1 [Cmpd 18] | 21

Same assay, conditions: constrained alkene compounds, Table 4; read-out: Cyclase GLP-1 EC50 (nm)

EC50 [nM] | Structure (SMILES)
131 | CC[C@H](C)[C@H](NC(=O)[C@H](Cc1ccccc1)NC(=O)[C@H](CC(C)C)NC(=O)[C@H](CCCNC(=N)N)NC(=O)[C@@H](NC(=O)[C@H](C)NC(=O)[C@H](CCC(=O)O)NC(=O)[C@H](CCC(=O)O)NC(=O)[C@H](CCC(=O)O)NC(=O)[C@H](CC(C)C)NC(=O)[C@H](CCC(N)=O)NC(=O)[C@H](CCCCN)NC(=O)[C@H](CO)NC(=O)[C@H](CC(C)C)NC(=O)[C@H](CC(=O)O)NC(=O)[C@H](CO)NC(=O)[C@@H](NC(=O)[C@H](Cc1ccccc1)NC(=O)[C@@H](NC(=O)CNC(=O)[C@@H]1CCCN1C(=O)[C@@H](C)NC(=O)[C@@H](N)Cc1c[nH]cn1)[C@@H](C)O)[C@@H](C)O)C(C)C)C(=O)NC1CC=CCC(C(N)=O)NC(=O)[C@H](CCCCN)NC(=O)[C@H](CC(C)C)NC(=O)[C@H](Cc2ccccc2)NC1=O (stereo partly shown) [Cmpd 25]
133 | CC[C@H](C)[C@H](NC(=O)[C@H](Cc1ccccc1)NC(=O)[C@H](CC(C)C)NC(=O)[C@H](CCCNC(=N)N)NC(=O)[C@@H](NC(=O)[C@H](C)NC(=O)[C@H](CCC(=O)O)NC(=O)[C@H](CCC(=O)O)NC(=O)[C@H](CCC(=O)O)NC(=O)[C@H](CC(C)C)NC(=O)[C@H](CCC(N)=O)NC(=O)[C@H](CCCCN)NC(=O)[C@H](CO)NC(=O)[C@H](CC(C)C)NC(=O)[C@H](CC(=O)O)NC(=O)[C@H](CO)NC(=O)[C@@H](NC(=O)[C@H](Cc1ccccc1)NC(=O)[C@@H](NC(=O)CNC(=O)[C@@H]1CCCN1C(=O)[C@@H](C)NC(=O)[C@@H](N)Cc1c[nH]cn1)[C@@H](C)O)[C@@H](C)O)C(C)C)C(=O)N[C@H]1C/C=C/C[C@H](C(N)=O)NC(=O)[C@H](CCCCN)NC(=O)[C@H](CC(C)C)NC(=O)[C@H](Cc2ccccc2)NC1=O [Cmpd 23]
35 | CC[C@H](C)[C@H](NC(=O)[C@H](Cc1ccccc1)NC(=O)[C@H](CC(C)C)NC(=O)[C@H](CCCNC(=N)N)NC(=O)[C@@H](NC(=O)[C@H](C)NC(=O)[C@H](CCC(=O)O)NC(=O)[C@H](CCC(=O)O)NC(=O)[C@H](CCC(=O)O)NC(=O)[C@H](CC(C)C)NC(=O)[C@H](CCC(N)=O)NC(=O)[C@H](CCCCN)NC(=O)[C@H](CO)NC(=O)[C@H](CC(C)C)NC(=O)[C@H](CC(=O)O)NC(=O)[C@H](CO)NC(=O)[C@@H](NC(=O)[C@H](Cc1ccccc1)NC(=O)[C@@H](NC(=O)CNC(=O)[C@@H]1CCCN1C(=O)[C@@H](C)NC(=O)[C@@H](N)Cc1c[nH]cn1)[C@@H](C)O)[C@@H](C)O)C(C)C)C(=O)N[C@H]1C/C=C\CCN([C@@H](CC(N)=O)C(N)=O)C(=O)[C@H](CCCCN)NC(=O)[C@H](CC(C)C)NC(=O)[C@H](Cc2ccccc2)NC(=O)C1 [Cmpd 35]
35 | CC[C@H](C)[C@H](NC(=O)[C@H](Cc1ccccc1)NC(=O)[C@H](CC(C)C)NC(=O)[C@H](CCCNC(=N)N)NC(=O)[C@@H](NC(=O)[C@H](C)NC(=O)[C@H](CCC(=O)O)NC(=O)[C@H](CCC(=O)O)NC(=O)[C@H](CCC(=O)O)NC(=O)[C@H](CC(C)C)NC(=O)[C@H](CCC(N)=O)NC(=O)[C@H](CCCCN)NC(=O)[C@H](CO)NC(=O)[C@H](CC(C)C)NC(=O)[C@H](CC(=O)O)NC(=O)[C@H](CO)NC(=O)[C@@H](NC(=O)[C@H](Cc1ccccc1)NC(=O)[C@@H](NC(=O)CNC(=O)[C@@H]1CCCN1C(=O)[C@@H](C)NC(=O)[C@@H](N)Cc1c[nH]cn1)[C@@H](C)O)[C@@H](C)O)C(C)C)C(=O)N[C@H]1CC=CC[C@@H](CC(N)=O)NC(=O)[C@H](CCCCN)NC(=O)[C@H](CC(C)C)NC(=O)[C@H](Cc2ccccc2)NC1=O [Cmpd 26]
127 | CC[C@H](C)[C@H](NC(=O)[C@H](Cc1ccccc1)NC(=O)[C@H](CC(C)C)NC(=O)[C@H](CCCNC(=N)N)NC(=O)[C@@H](NC(=O)[C@H](C)NC(=O)[C@H](CCC(=O)O)NC(=O)[C@H](CCC(=O)O)NC(=O)[C@H](CCC(=O)O)NC(=O)[C@H](CC(C)C)NC(=O)[C@H](CCC(N)=O)NC(=O)[C@H](CCCCN)NC(=O)[C@H](CO)NC(=O)[C@H](CC(C)C)NC(=O)[C@H](CC(=O)O)NC(=O)[C@H](CO)NC(=O)[C@@H](NC(=O)[C@H](Cc1ccccc1)NC(=O)[C@@H](NC(=O)CNC(=O)[C@@H]1CCCN1C(=O)[C@@H](C)NC(=O)[C@@H](N)Cc1c[nH]cn1)[C@@H](C)O)[C@@H](C)O)C(C)C)C(=O)N[C@@H]1CC=CC[C@@H](C(N)=O)NC(=O)[C@H](CCCCN)NC(=O)[C@H](CC(C)C)NC(=O)[C@H](Cc2ccccc2)NC1=O [Cmpd 24]

Same assay, conditions: in vitro

Structure (SMILES) | activity in GLP-1 cyclase assay (in words)
CC[C@H](C)[C@H](NC(=O)[C@H](Cc1ccccc1)NC(=O)[C@H](CC(C)C)NC(=O)[C@H](CCCNC(=N)N)NC(=O)[C@@H](NC(=O)[C@H](C)NC(=O)[C@H](CCC(=O)O)NC(=O)[C@H](CCC(=O)O)NC(=O)[C@H](CCC(=O)O)NC(=O)[C@H](CC(C)C)NC(=O)[C@H](CCC(N)=O)NC(=O)[C@H](CCCCN)NC(=O)[C@H](CO)NC(=O)[C@H](CC(C)C)NC(=O)[C@H](CC(=O)O)NC(=O)[C@H](CO)NC(=O)[C@@H](NC(=O)[C@H](Cc1ccccc1)NC(=O)[C@@H](NC(=O)CNC(=O)[C@@H]1CCCN1C(=O)[C@@H](C)NC(=O)[C@@H](N)Cc1c[nH]cn1)[C@@H](C)O)[C@@H](C)O)C(C)C)C(=O)N[C@H]1CC=CC[C@@H](CC(N)=O)NC(=O)[C@H](CCCCN)NC(=O)[C@H](CC(C)C)NC(=O)[C@H](Cc2ccccc2)NC(=O)C1 [Cmpd 27] | subnanomolar activity
